Molecular target: T1, hFGFR2b.mmh (human)
T1 construct: also called Human FGFR2b with C-terminal myc-myc-hexahistidine tag
T1 chain: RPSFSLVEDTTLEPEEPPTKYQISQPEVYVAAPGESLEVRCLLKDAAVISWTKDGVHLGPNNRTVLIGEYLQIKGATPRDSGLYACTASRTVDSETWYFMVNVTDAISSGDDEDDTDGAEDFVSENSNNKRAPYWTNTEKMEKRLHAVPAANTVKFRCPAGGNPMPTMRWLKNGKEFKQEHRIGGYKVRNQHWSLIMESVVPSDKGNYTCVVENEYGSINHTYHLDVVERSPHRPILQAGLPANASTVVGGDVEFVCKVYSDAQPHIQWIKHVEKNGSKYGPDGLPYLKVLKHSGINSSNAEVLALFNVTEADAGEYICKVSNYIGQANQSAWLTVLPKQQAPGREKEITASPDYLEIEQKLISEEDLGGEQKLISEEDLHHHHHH
Assay: SPR (Biacore), ADC captured by anti-human Fc, hFGFR2b-MMH as analyte, 25 C
Procedure: The equilibrium dissociation constants (KD values) for hFGFR2b.mmh binding to anti-FGFR2 antibodies conjugated with Tubulysin (“tubulysin 1ALP”), Auristatin (“auristatin LP1”), or mc-VC-PAB-NMe-C3-May (“maytansinoid 1ALP”) were determined using a real-time surface plasmon resonance biosensor assay on a Biacore 2000 or a Biacore 4000 instrument. The Biacore sensor surface was derivatized by amine coupling with a monoclonal mouse anti-human Fc antibody (REGN2567 or Jackson Cat. No #109-005-098) to capture anti-FGFR2 ADC and parent unmodified antibodies expressed with human constant regions. Biacore binding studies were performed in HBS-EP running buffer (0.01M HEPES pH 7.4, 0.15M NaCl, 3 mM EDTA, 0.05% v/v Surfactant P20). […] Association of hFGFR2b-MMH or hFGFR2c-MMH to each of the captured ADCs and monoclonal antibodies was monitored for 4 minutes. Subsequently, dissociation was monitored for 10 minutes in HBS-EP running buffer. […] Kinetic association (kₐ) and dissociation (kd) rate constants were determined by fitting the real-time sensorgrams to a 1:1 binding model using Scrubber 2.0c curve fitting software. […] Binding dissociation equilibrium constants (KD) and dissociative half-lives (t½) were calculated from the kinetic rate constants as: […]

B1: mAb2-tubulysin 1ALP (antibody, V domains shown)
VH: QVQLVESGGGVVQPGKSLRLSCAASGFTFSNYGMHWVRQTPVKGLEWVTLIWYDGSNKYYTDSVKGRFTISRDNSKNTLYLQMNSLRSEDTAVYYCAREGNWNYGHAFDIWGQGTMVTVSS
VL: DIQMTQSPSTLSASVGDRVTITCRASQNIGNWLAWYQQKPGKAPNLLIYKASTLESGVPSRFSGSGSGTEFTLTISSLQPDDFATYNCQQYNSYSPTFGQGTKLEIKR
modifications: deglycosylated; Q295 carries azido-PEG3-amine clicked to Tubulysin 1A-LP; DAR 2.1 per antibody
notes: also called Anti FGFR2 mAb2-PEG3-N3-Tubulysin 1A-LP
- Kd: 23.1 nM

B2: mAb1-tubulysin 1ALP (antibody, human IgG4 S228P, kappa, V domains shown)
VH: QVQLVESGGGVVQPGRSLRLSCAASGFTFSSYGMHWVRQAPGKGLEWVAVIWYDGSNKYYADSVKGRFTISRDNSKNTLYLQMNSLRAEDTAVYYCAREESSASGVDYWGQGTLVTVSS
VL: EIVLTQSPGTLSLSPGERATLSCRASQSVSTRYLAWYQQKRGQAPRLLIYGASSRATGIPDRFSGSGSGTDFTLTISRLEPEDFAVYYCQEYGSSSITFGQGTRLEIKR
modifications: deglycosylated; Q295 carries azido-PEG3-amine clicked to Tubulysin 1A-LP; DAR 2.1 per antibody
notes: also called Anti FGFR2 mAb1-PEG3-N3-Tubulysin 1A-LP
- Kd: 48.1 nM

From patent US20220162323A1 (Regeneron, published 2022)
